From patent US20090312396A1, “METHODS FOR CANCER TREATMENT USING TAK1 INHIBITORS” (AstraZeneca AB, priority 2006, published 2009)

Target: T1, TAK1 (Homo sapiens, UniProt O43318)
T1 sequence (O43318 1-606): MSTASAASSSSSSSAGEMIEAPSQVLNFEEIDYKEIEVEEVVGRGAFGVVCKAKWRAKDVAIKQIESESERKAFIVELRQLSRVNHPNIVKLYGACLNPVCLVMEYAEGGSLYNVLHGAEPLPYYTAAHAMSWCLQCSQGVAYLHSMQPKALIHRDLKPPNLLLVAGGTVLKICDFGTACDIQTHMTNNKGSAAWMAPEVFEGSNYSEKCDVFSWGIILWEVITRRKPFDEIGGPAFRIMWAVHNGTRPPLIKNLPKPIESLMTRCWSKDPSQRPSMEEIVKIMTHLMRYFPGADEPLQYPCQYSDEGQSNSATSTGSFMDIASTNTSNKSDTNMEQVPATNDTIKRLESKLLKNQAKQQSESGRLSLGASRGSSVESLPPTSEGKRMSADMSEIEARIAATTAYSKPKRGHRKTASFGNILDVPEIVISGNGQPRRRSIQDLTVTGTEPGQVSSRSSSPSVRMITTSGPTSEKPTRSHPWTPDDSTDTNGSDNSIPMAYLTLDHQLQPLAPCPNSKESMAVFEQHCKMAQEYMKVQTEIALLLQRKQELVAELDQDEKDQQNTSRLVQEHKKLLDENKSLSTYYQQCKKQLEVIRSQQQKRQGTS
T1 sequence (Q15750 1-504 partner): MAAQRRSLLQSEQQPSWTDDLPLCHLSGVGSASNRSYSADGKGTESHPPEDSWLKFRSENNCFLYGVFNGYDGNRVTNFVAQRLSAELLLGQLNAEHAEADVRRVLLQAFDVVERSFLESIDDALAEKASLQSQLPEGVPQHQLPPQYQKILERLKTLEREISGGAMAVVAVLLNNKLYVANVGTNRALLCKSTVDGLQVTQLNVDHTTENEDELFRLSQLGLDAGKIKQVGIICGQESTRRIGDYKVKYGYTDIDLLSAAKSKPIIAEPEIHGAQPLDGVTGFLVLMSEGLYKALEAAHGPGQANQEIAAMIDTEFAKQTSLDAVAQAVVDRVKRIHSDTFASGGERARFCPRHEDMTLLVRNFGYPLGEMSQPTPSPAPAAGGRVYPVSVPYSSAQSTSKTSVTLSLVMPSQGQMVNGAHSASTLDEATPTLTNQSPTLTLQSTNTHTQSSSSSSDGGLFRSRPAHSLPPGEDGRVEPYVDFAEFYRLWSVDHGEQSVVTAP
Assay: TAK1 enzyme inhibition
Assay type: biochemical

- IC50 (Table 7, read-out: TAK1 pIC50 (converted)): 158 nM
- TAK1 pIC50 (Table 8): 6.8
SMILES: COc1cc(O)c2c(c1)/C=C/C[C@H](O)[C@H](O)C(=O)/C=C\C[C@H](C)OC2=O [LL-Z-1640-2, (3S,5Z,8S,9S,11E)-8,9,16-trihydroxy-14-methoxy-3-methyl-3,4,9,10-tetrahydro-1H-2-benzoxacyclotetradecine-1,7(8H)-dione, reference compound]
